Results reported in ChEMBL document CHEMBL2390867, “Design, synthesis and evaluation of novel tacrine-coumarin hybrids as multifunctional cholinesterase inhibitors against Alzheimer's disease” (Eur J Med Chem, 2013).

The chains behind the UniProt entries cited, without tags or fusion partners.
UniProt P81908, whole entry: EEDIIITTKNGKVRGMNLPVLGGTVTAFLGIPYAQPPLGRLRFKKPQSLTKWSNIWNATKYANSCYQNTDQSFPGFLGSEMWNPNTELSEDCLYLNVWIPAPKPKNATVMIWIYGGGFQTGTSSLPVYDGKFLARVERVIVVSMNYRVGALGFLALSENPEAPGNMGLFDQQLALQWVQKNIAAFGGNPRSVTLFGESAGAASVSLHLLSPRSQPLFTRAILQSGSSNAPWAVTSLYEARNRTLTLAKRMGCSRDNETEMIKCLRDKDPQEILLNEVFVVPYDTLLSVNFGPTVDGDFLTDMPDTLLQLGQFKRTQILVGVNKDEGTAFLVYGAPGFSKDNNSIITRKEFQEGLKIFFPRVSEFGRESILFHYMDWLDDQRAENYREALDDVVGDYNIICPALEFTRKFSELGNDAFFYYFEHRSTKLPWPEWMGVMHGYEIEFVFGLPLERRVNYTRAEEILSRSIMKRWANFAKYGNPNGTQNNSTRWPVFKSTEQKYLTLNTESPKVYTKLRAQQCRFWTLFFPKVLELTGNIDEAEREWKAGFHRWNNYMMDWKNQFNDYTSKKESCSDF

Target: Cholinesterase (Equus caballus, UniProt P81908)

For `O=c1ccc2ccc(O)cc2o1` [UMBELLIFERONE], the IC50 was greater than 500 µM.
